Assays:
Primary hepatocyte = settings: mouse, 3 h, 100 μM
TTF = settings: mouse, 3 h, 200 μM
Description: To determine Alb secretion, TTFs transduced with three factors were cultured in the medium without phenol red. Culture supernatant was collected 24 h after medium change. The amount of Alb in the supernatant was determined by the mouse albumin ELISA kit (BETHYL LABORATORY) according to the manufacturer's instructions. […] The supernatants were collected for measurement of indicated productions by LC-MS/MS (AGILENT 1200 HPLC and ABI 4000 mass-spectrometer). Freshly isolated hepatocytes were used as a positive control. Total cell protein amount was used to normalize the data.
Metabolites of these chemicals were measured by liquid chromatography-tandem mass spectrometry (LC/MS/MS) according to each standard curve.

4′-OH-Diclotenac (Primary hepatocyte): 785.6 ± 77.9 pmol/min/mg protein
4′-OH-Diclotenac (TTF): 131.7 ± 28.5 pmol/min/mg protein
Structure (SMILES): O=C(O)Cc1ccccc1Nc1c(Cl)cccc1Cl [Diclofenac, diclofenac]

— patent US9416348B2, “Hepatocyte-like cells and uses thereof” (priority 2010, dated 2016)
